Protein sequences, listed by entry. Tags and fused reporters are not part of them.
UniProt Q07820, whole entry: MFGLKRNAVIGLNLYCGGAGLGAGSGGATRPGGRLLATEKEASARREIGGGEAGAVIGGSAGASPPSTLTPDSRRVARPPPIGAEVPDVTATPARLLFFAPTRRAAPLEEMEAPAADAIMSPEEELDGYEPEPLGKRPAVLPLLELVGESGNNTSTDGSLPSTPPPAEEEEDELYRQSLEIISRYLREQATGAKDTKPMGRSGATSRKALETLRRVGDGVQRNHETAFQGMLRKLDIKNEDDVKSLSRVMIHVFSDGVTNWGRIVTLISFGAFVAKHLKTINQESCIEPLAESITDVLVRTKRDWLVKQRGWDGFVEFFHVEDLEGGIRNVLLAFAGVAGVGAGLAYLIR

According to patent publication US20130295185A1, “COMPOUNDS AND METHODS FOR INDUCING APOPTOSIS IN CANCER CELLS USING A BH3 ALPHA-HELICAL MIMETIC” (H. Lee Moffitt Cancer Center and Research Institute, Inc., priority 2011, published 2013):

Columns and labels:
[1] = target: Mcl-1 binding to Bax and Bim (Homo sapiens, UniProt Q07820); assay: GST pull-down, GST-Mcl-1 with Bax and Bim from cell lysates; conditions: HEK293T and A549 cell lysates; 0, 50, 100 μM BH3-M6 or 100 μM TPC; tested form: diammonium salt (as drawn, CO2NH4)
Text: FIG. 2 is a series of images illustrating that BH3-M6, but not TPC, inhibits the binding of anti-apoptotic proteins to pro-apoptotic proteins in vitro. (A) a series of graphs illustrating that BH3-M6 blocks the binding of Bak BH3 α-helix to Bcl-XL (left) or Bim BH3 α-helix to Mcl-1 (right) as measured by fluorescence polarization assay, black circles: BH3-M6, open triangles: TPC. (B) BH3-M6 inhibits the interaction of Bcl-XL or Mcl-1 with Bax and Bim as measured by GST pull-down assay. Purified GST, GST-Bcl-XL and GST-Mcl-1 fusion proteins immobilized on glutathione-Sepharose beads were incubated for 1 h with 0, 50 and 100 μM BH3-M6 or 100 μM TPC, followed by addition of cell extracts from HEK293T or A549 cells for 1 h. Proteins associated with beads were eluted and analyzed by Western blotting with Bax and Bim antibodies.
Whole cell lysates of HEK293T and A549 cells were prepared using NP-40 lysis buffer (see above). […]
The inventors next determined whether in lysates from HEK293T or A549 cells, BH3-M6 was able to disrupt the interaction between full-length Bax and Bim to full-length Bcl-XL and Mcl-1, respectively, in GST pull-down assays.

[2] = test system: A549 cells; assay: Apoptosis in A549 cells (DAPI staining, PARP cleavage); conditions: A549, 48 h; tested form: diammonium salt (as drawn, CO2NH4)
Description: FIG. 5 is a series of images illustrating BH3-M6 induces apoptosis in a caspase-dependent manner. (A) BH3-M6 releases cytochrome c from mitochondria. Mitochondria from A549 cells were incubated at 37° C. with 0, 50 μM BH3-M6 or TPC for 60 min. Cytochrome c release was determined as described in Methods. B-D A549 cells were treated with the indicated BH3-M6 concentrations for up to 72 h and then processed for various assays as described in EXPERIMENTAL PROCEDURES. (B) BH3-M6 induces apoptosis after 48 h of exposure to BH3-M6, as shown by phase images of cells (left panel) or DAPI nuclear staining (right panel). The arrows point towards cells in the process of rounding. The images from phase and DAPI are from different experiments. […] (D) BH3-M6 decreases the viability of A549 cells in a dose-dependent manner as measured by MTT assay after 72 h treatment. […] Caspase-3/-7 activity was determined as described in EXPERIMENTAL PROCEDURES. […] Middle panel, PARP cleavage was measured by Western blotting. Lower panel, extent of apoptosis was measured by TUNEL assay.
Release of cytochrome c from isolated mitochondria was measured as described by Takahashi et al. (Takahashi, Y., Karbowski, M., Yamaguchi, H., Kazi, A., Wu, J., Sebti, S. M., Youle, R. J., and Wang, H. G. (2005) Mol Cell Biol 25, 9369-9382) Cell-free caspase-3/-7 activity and the extent of PARP cleavage was determined as described previously. […]

SMILES: CC(C)Cc1cc(-c2ccc(-c3ccc(CCC(=O)O)cc3CC(C)C)cc2Cc2ccccc2)ccc1OCC(=O)O
- disruption of the binding of Mcl-1 to Bax and Bim [1]: disrupted
- apoptosis as measured by DAPI staining [2]: induced apoptosis
- appearance of an 85 kDa PARP fragment [2]: concentration-dependent manner
